The values that follow come from patent publication US11918581B2, “Combination therapy comprising JAK pathway inhibitor and rock inhibitor” (Incyte Corporation, priority 2021, dated 2024).

This experiment concerns the target human JAK1 (a.a. 837-1142) (Homo sapiens, UniProt P23458). Description: In vitro JAK kinase assay (HTRF), JAK1. To be noted: 1 mM ATP. It is filed as biochemical.

As for `CN(C)Cc1cc(F)cc(OC2CCN(CC(CC#N)n3cc(-c4ncnc5[nH]ccc45)cn3)CC2)c1` (single isomer, unassigned) [Compound 14, 4-(4-{3-[(dimethylamino)methyl]-5-fluorophenoxy}piperidin-1-yl)-3-[4-(7H-pyrrolo[2,3-d]pyrimidin-4-yl)-1H-pyrazol-1-yl]butanenitrile], the concentration for half-maximal inhibition (IC50) was less than 10 nM.
